Earlier results in paper PMC8470770, “Characterization of a Primate Blood-Brain Barrier Co-Culture Model Prepared from Primary Brain Endothelial Cells, Pericytes and Astrocytes” (Pharmaceutics, 2021).

Test system: primary triple co-culture monkey BBB model
Conditions: cited from earlier work

## maraviroc
  mean Papp across the monkey BBB model: 160 nm/s
